Assay results: PMC8131325

Legend:
[1] = biological target: fatty acid binding protein 3 (UniProt P05413); assay: other fluorescence titration; ANS fluorescence (5 μM ANS, emission at 460 nm) of 2 μM FABP3 with increasing concentrations of αSyn or αSynP130-140; 50 mM Tris-HCl pH 7.4
[2] = biological target: fatty acid binding protein 3 (UniProt P05413)

α-synuclein (from UniProt P37840 1-140) (natural protein)
stoichiometry N [1]: 1 | dynamic light scattering: average particle size after a 1200 min incubation of αSyn with FABP3 (6 μm for αSyn alone) [2]: 0.63 μm
